This passage reports activation results from PubChem BioAssay AID1304 (The Scripps Research Institute Molecular Screening Center, 2008).

Chains of the proteins cited; added tags and fusions are not shown.
UniProt P25929, whole entry, looked up: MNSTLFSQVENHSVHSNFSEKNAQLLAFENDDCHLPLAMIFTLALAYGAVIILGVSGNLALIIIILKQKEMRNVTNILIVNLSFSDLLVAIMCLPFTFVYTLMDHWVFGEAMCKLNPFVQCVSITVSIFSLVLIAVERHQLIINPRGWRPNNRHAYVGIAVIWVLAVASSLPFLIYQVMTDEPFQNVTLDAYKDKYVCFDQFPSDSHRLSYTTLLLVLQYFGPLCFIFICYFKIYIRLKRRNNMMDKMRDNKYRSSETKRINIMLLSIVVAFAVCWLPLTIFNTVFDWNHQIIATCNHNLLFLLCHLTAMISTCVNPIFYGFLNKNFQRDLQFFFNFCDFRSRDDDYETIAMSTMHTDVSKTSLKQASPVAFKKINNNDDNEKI

Only a part is listed here, and it is no random draw. Calls of active or inactive are those of the source. Cut-off read from the data, not from the text of the source: active = activation above about 33% (passing the limit was not always enough); inactive = the rest.

This test addresses Neuropeptide Y receptor type 1 (Homo sapiens) (UniProt P25929). The test can be described thus: NPY-Y1 receptor potentiators or agonists, primary screen, cell-based (AID 1304).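 Note: cells stimulated with NPY at EC10 then isoproterenol at EC100; 0% = low agonist plus stimulus and 100% = saturating agonist plus stimulus.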 As to conditions: NPY-Y1 expressing cells, potentiator/agonist activation; at 3.6 µM; active compounds read high.
On to `O=[As](O)(c1ccccc1Br)c1ccccc1Br`, for which the activation was inactive: 9.23%.

Turning to `CC(C)/C=N\N=C(\N)N[N+](=O)[O-]`, the activation is inactive: 2.78%.

For the molecule `CN(C(=O)Cc1ccc(Cl)c(Cl)c1)[C@@H]1CCCC[C@H]1N1CCCC1`, the activation is inactive: 14.3%.

Regarding `Cc1cccc(OCC(=O)OC2CN3CCC2CC3)c1` (stereo unspecified), the activation is inactive: -0.6%.

Regarding `O=[As](O)(c1cccc(O)c1)c1cccc(O)c1`, the activation is inactive: 10%.

For the molecule `O=[As](O)(O)c1cccnc1`, the activation is inactive: -6.41%.

On to `COc1cc(C(=O)NCC2(N3CCOCC3)CCCCC2)cc(Cl)c1OC(C)C`, for which the activation was inactive: 7.29%.

In the case of `O=C(OC1CN2CCC1CC2)c1ccc(Cl)cc1` (stereo unspecified), the activation was inactive: -1.37%.

`CCOP(=O)(Nc1cccc2ccccc12)OCC`: the activation is inactive: -13%.

`COc1cc(C2NCCC3(OCCO3)C2(C)C)cc(OC)c1OC` (stereo unspecified): the activation was inactive: -17%.

As to `CCCOP(=S)(Nc1nc(N)cc(=O)[nH]1)OCCC`, the activation is inactive: 14.6%.

As to `Nc1cccc2c([As](=O)(O)O)cccc12`, the activation is inactive: 1.79%.

`Cc1ccc(NCCc2c([N+](=O)[O-])cc([N+](=O)[O-])cc2[N+](=O)[O-])cc1`: the activation is inactive: 21.2%.

On to `Nc1ccccc1[As](=O)(O)c1ccccc1`, for which the activation was inactive: 3.29%.

In the case of `O=C(O)COc1ccc([As](=O)(O)O)cc1[N+](=O)[O-]`, the activation is inactive: 7.28%.

As to `CS(=O)(=O)c1cc([N+](=O)[O-])c2no[n+]([O-])c2c1`, the activation was inactive: -0.07%.

Consider `O=P(Nc1nccs1)(Oc1ccccc1)Oc1ccccc1`, for which the activation is inactive: 14.7%.

For the molecule `O=P(Nc1nccs1)(c1ccccc1)c1nc2ccccc2s1` (stereo unspecified), the activation was inactive: -2.36%.

With `CCOP1(=S)c2c(C)nn(CCC#N)c2N=C(c2ccccc2F)N1C` (stereo unspecified), the activation is inactive: 3.96%.

For the molecule `O=[N+]([O-])c1ccc2c(c1)nnn2O`, the activation is inactive: -10.6%.

With `CCOP1(=S)c2c(C)nn(CCC#N)c2N=C(c2ccc(F)cc2)N1C` (stereo unspecified), the activation was inactive: -4.79%.
